Ab-95 light chain CDR variants: yeast mating affinities

Values reported by Engelhart et al. 2022, doi:10.1038/s41597-022-01779-4 (FLAb copy).

Binding partner: SARS-CoV-2 spike HR2 peptide, sequence PDVDLGDISGINAS.

Ab-95 is the parent antibody, in scFv form: VH, then a 15-residue (Gly4Ser)3 linker, then VL. The heavy chain is unchanged in all variants.
VH: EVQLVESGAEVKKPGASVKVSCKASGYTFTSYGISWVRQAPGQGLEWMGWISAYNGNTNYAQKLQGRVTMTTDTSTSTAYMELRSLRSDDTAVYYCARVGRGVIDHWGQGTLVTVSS
VL: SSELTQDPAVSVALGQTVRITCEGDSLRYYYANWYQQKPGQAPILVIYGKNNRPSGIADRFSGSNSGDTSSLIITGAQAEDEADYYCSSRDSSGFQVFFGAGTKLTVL

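The starting antibody came from a phage panning campaign against this peptide. AAYL52 was designed without a model: most single CDR substitutions and a random sample of double and triple ones. AlphaSeq pools MATa yeast showing the antibodies with MATalpha yeast showing the peptide. Binding brings cells together so that they mate, and sequencing counts the barcode pairs among the diploids. Each replicate has its own calibration line, from reference interactions of the BCL2 family. There are three technical replicates.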

Variants are written as CDR1, CDR2 and CDR3 of the light chain (limits as in the source). Parent: EGDSLRYYYAN, GKNNRPS, SSRDSSGFQVF.
Affinities are written as log10 Kd with Kd in nM; a lower number is a better binder.
"nd" marks a missing value. The strain was present, yet no cells mated with the target were sequenced in that replicate, which points to weak or no binding.
Empty control strains, which show no peptide, gave a signal in 28% of pairings with library AAYL52; the median was 3.91 and 95% of these signals were weaker than 2.90. No background was subtracted. The control count says in how many pairings with the empty strains this scFv gave a signal, with their mean in brackets.
For reference, the parent read 2.31 as the reference entry and 2.25 as a member of this library.

CDR-L1 | CDR-L2 | CDR-L3 | log10 Kd, replicates | control signals
EGDSLRYYYAN | GGNNRPS | SSRQCSGFQVF | 3.17 / 2.95 / 3.68 | 1 of 9 (2.91)
WGDSLRLYYAN | GKNNRPS | SSRDSSHFQVF | 4.61 / 4.38 / 3.38 | 3 of 9 (3.73)
EGDSLRYYNAN | GKNNRPS | SSRDPSGFQAF | 2.68 / 4.66 / nd | 1 of 9 (3.04)
EGDSLRYNYAN | GKNNRPT | SSRDSSGFQHF | 1.15 / 0.85 / 0.30 | 5 of 9 (3.85)
EGDSQRYYYAN | GKNNRPS | SGRDSVGFQVF | nd / nd / nd | 1 of 9 (3.49)
EGDSLRYYYAE | MKSNRPS | SSRDSSGFQVF | nd / nd / nd | 1 of 9 (3.42)
EGDSLRYYYAN | SKNNRAS | SSRDSSWFQVF | 3.15 / 3.58 / 2.62 | 3 of 9 (3.43)
EGDSLRTYNAN | SKNNRPS | SSRDSSGFQVF | 1.37 / 1.18 / 3.13 | 0 of 9
EGDSLRYWYAN | GKNNRPS | SSRDCSGFQVF | 2.34 / 2.92 / 4.03 | 0 of 9
KGDSKRYYYAN | GKNNRPS | SSRFSSGFQVF | 2.94 / 3.04 / 3.68 | 5 of 9 (3.62)
EGDSLYYYYAN | EKNNRPS | SSRDSSGFQVY | nd / nd / nd | 1 of 9 (3.67)
WGDSRRYYYAN | GKNNRPS | SSRDSSGFQVF | 2.50 / 2.32 / 2.73 | 4 of 9 (4.21)
ENDSPRYYYAN | GHNNRPS | SSRDSSGFQVF | 4.11 / nd / 4.25 | 3 of 9 (3.79)
EGLSLRYYYAN | GKNNRPS | SSRDSSGFQVF | 2.66 / 2.20 / 2.22 | 0 of 9
TGDSLRYYYAN | GKNQRPS | SSRRSSGFQVF | nd / nd / nd | 1 of 9 (3.78)
EGDSLLYYYAN | GKNNRNS | SSRDSSGFQGF | 2.53 / 3.39 / 2.26 | 1 of 9 (3.84)
EKDSLRYYYAN | GKNNRMS | SSQDSSGFQVF | 4.19 / nd / nd | 1 of 9 (3.70)
EEDSLRYIYAN | GKNNRPS | SFRDSSGFQVF | 4.17 / 5.72 / nd | 6 of 9 (3.72)
EGDSLRYYYYN | GKNNRPS | SSRDHSGFQVD | 4.72 / nd / nd | 0 of 9
EGDDLRYYYAN | GKNNRPS | SSRDESGFQVN | 3.91 / nd / nd | 0 of 9
IGDSLRYGYAN | GKNNRPS | SERDSSGFQVF | 1.47 / 1.31 / 0.91 | 1 of 9 (5.31)
EGDSLRYYYAN | GKNNRPS | SETDSSTFQVF | 2.25 / 1.99 / 2.14 | 2 of 9 (3.84)
EGDSLRYHYAN | GKPNRPS | SSRDSSGFQSF | 4.11 / 3.74 / nd | 1 of 9 (3.84)
EGDSLRYYYAH | GKNNYPS | SSRDSSGFQVF | 4.85 / 4.63 / nd | 4 of 9 (3.82)
EGDSLRYRYAN | GKNNVPS | SSHDSSGFQVF | 3.29 / 3.05 / 2.71 | 2 of 9 (3.73)
TGDSLRYYYAN | GKNNRPS | SSRDSAGFQVT | 3.61 / 3.66 / 4.15 | 2 of 9 (4.68)
EGDSLRYYYAN | GHNNRPS | SSRDGSGFQVA | 3.24 / 2.83 / 2.60 | 1 of 9 (3.23)
EGDSMRYYYAN | GKNNCPS | SSRDSSGFQVF | nd / nd / 4.59 | 4 of 9 (4.52)
EGDSLRYYYAN | GKNNRPS | TSRDSSPFQVF | 5.53 / 4.63 / nd | 3 of 9 (4.93)
EGDSLRYRYAN | GKNNRPS | SSRDSSSFLVF | nd / 3.45 / nd | 1 of 9 (3.45)
EGDSLRYYYAN | GKNNYPS | SSRDSSGFQVF | nd / 3.16 / 3.76 | 5 of 9 (3.80)
EGDSLRYYYAN | GKNNRCS | SSRDESGFQVF | 1.83 / 1.50 / 1.25 | 1 of 9 (5.68)
EGDSLRYWYAN | GKANRPS | SSRLSSGFQVF | 5.09 / 3.35 / nd | 5 of 9 (3.59)
PGDSLSYYYAN | GKNNRPS | SSRDSSAFQVF | nd / nd / 3.44 | 3 of 9 (4.03)
EGDSLRYYYAG | GKNNRPS | SSWDASGFQVF | 4.66 / 5.43 / nd | 2 of 9 (3.64)
EGDSLRYYYAN | GKNNRPI | SSLDSGGFQVF | nd / nd / nd | 1 of 9 (4.16)
MGDSLPYYYAN | GKNNRPS | CSRDSSGFQVF | 3.58 / 5.63 / nd | 2 of 9 (3.21)
EGDSLPGYYAN | GKNNRPS | SSRDSSGFQVA | 2.78 / 2.86 / 2.83 | 3 of 9 (3.89)
EGDSLYYYYSN | GKNSRPS | SSRDSSGFQVF | 2.93 / 2.65 / 2.87 | 0 of 9
EGDSLRYYYAN | GKLNRPS | SSFDSLGFQVF | 4.18 / 4.28 / nd | 3 of 9 (4.09)
EGASLRMYYAW | GKNNRPS | SSRDSSGFQVF | nd / 5.05 / nd | 2 of 9 (3.77)
EGDSLRYYYAN | TKNNRPS | SLRDSSGFCVF | nd / nd / 3.45 | 2 of 9 (3.86)
ENDSLQYYYAN | GKNNRPM | SSRDSSGFQVF | 2.55 / 2.04 / 1.81 | 0 of 9
EGDSLRYGYAN | GKNNRPS | SSRDSMGIQVF | 2.50 / 2.70 / 2.32 | 3 of 9 (3.08)